## Yeast mating assay B: variants of the scFv Ab-14

From the AlphaSeq antibody data of Li et al. 2023 (doi:10.1038/s41467-023-39022-2), copy in the FLAb collection.

All variants were tested on one target, the spike HR2 peptide PDVDLGDISGINAS (SARS-CoV-2).

Parent scFv Ab-14: VH joined to VL by the linker GGGGSGGGGSGGGGS. Changes lie in the light chain CDRs alone.
VH: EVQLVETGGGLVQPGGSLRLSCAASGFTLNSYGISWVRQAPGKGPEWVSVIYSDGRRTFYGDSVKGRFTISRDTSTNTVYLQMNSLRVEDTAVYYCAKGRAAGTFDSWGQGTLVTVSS
VL: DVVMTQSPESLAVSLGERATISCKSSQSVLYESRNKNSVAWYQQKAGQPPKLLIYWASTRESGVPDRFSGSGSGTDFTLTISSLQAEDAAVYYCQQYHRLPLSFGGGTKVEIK

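These sequences belong to a second round, designed from the earlier measurements on random variants of the parent. Their group label is 14L_GP_HC (GP: Gaussian process model; HC: hill climbing; a sequence that several methods proposed may carry one label only). AlphaSeq pools MATa yeast showing the antibodies with MATalpha yeast showing the peptide. Binding brings cells together so that they mate, and sequencing counts the barcode pairs among the diploids. The ratio of observed to expected reads was calibrated, replicate by replicate, on BCL2-family standards whose Kd was known from biolayer interferometry. The assay was run in six technical replicates.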

Substitutions are numbered in sequence along the VL above, starting at 1 (not Kabat). Numbers give log10(Kd / nM), so 0 is 1 nM and 3 is 1 µM. Smaller is tighter. Averages over replicates are reported, and they cover detected replicates only. Three control strains display no target. For all light chain designs, 4% of the pairings with them gave a signal, with a median of 2.64 and one signal in twenty below 1.59, so weak values seen in few replicates may be background. Also given: how often the same scFv was detected with the empty control strains. In the paper, a design with two or fewer of six values counts as a poor binder. A sequence measured in both rounds can read differently, since the two assays cover different ranges.

Variant S26Y/Q27I/V29D/W56E showed -0.02, -0.34, -0.32, -0.45, -0.30, -0.19 (mean -0.27; controls 0 of 18).
Variant K24I/S25A/S26P/V29W/W56G/S103I showed 0.12, 0.33, -0.17, 0.04, 0.09, 0.34 (mean 0.13; controls 0 of 18).
Variant K24D/V29W/W56G/T59Q showed 0.15, -0.01, 0.01, -0.08, 0.00, 0.00 (mean 0.01; controls 0 of 18).
Variant L30D/Y31F/W56D showed -0.16, -0.23, -0.25, -0.45, -0.64, -0.30 (mean -0.34; controls 0 of 18).
Variant S25E/V29W/L30M/W56G showed 0.99, 0.88, 0.64, 0.68, 0.60, 0.82 (mean 0.77; controls 1 of 18).
Variant S25F/N35T/W56N/S58V/S62E showed -0.01, -0.17, -0.07, -0.18, -0.26, -0.19 (mean -0.15; controls 1 of 18).
Variant S26L/Q27E/R34N/W56H/S62D showed 0.80, 0.60, 0.45, 0.63, 0.78, 0.47 (mean 0.62; controls 1 of 18).
Variant K24S/S25F/V29Q/N35T/W56N showed 0.22, -0.05, -0.15, -0.25, 0.06, 0.03 (mean -0.02; controls 0 of 18).
Variant S25H/S33W/W56D showed 0.26, -0.07, -0.10, -0.29, -0.14, 0.00 (mean -0.06; controls 1 of 18).
Variant S25H/S33W/W56G showed 0.26, 0.09, 0.20, -0.20, 0.04, 0.12 (mean 0.08; controls 3 of 18).
Variant K24I/S25I/Y31D/W56D showed 0.94, 1.19, 1.13, 0.22, 1.09, 1.18 (mean 0.96; controls 1 of 18).
Variant S26P/Q27I/V29Y/W56A showed 0.07, 0.05, -0.47, -0.44, -0.55, -0.23 (mean -0.26; controls 0 of 18).
Variant Q27I/V29Y/E32A/W56E showed -0.17, -0.31, -0.27, -0.40, -0.44, -0.04 (mean -0.27; controls 0 of 18).
Variant V29M/Y31G/W56D showed 0.21, -0.02, -0.10, -0.29, -0.31, -0.04 (mean -0.09; controls 0 of 18).
Variant S25L/S26M/Q27M/V29T showed 0.58, 1.44, 1.01, 0.79, 1.28, 1.18 (mean 1.05; controls 0 of 18).
Variant S26G/S28G/L30D/W56G/S103H showed 0.02, -0.28, 0.07, -0.05, -0.15, 0.03 (mean -0.06; controls 1 of 18).
Variant S25L/S26Q/S28Q/V29T/W56S showed -0.28, -0.12, -0.51, 0.37, 0.27, -0.13 (mean -0.07; controls 0 of 18).
Variant S25F/S28K/S33H/R34G/N35T/W56N showed 0.43, 0.11, 0.45, 0.00, 0.32, 0.58 (mean 0.31; controls 1 of 18).
Variant K24H/S25L/Q27W/S28V/V29D/W56N showed -0.07, -0.14, -0.07, -0.27, -0.01, -0.22 (mean -0.13; controls 0 of 18).
Variant S25V/N35M/W56D/E61C/S103F showed 0.23, 0.11, 0.00, -0.01, 0.11, 0.17 (mean 0.10; controls 2 of 18).
Variant S25L/S26R/Q27M/V29T/W56D showed -0.04, -0.20, -0.27, -0.28, -0.23, -0.22 (mean -0.21; controls 0 of 18).
Variant S26G/S28G/V29E/W56G/T59Q/E61W showed 0.05, 0.01, -0.03, -0.23, 0.02, 0.12 (mean -0.01; controls 3 of 18).
Variant S25L/V29T/E32D/R34E/H98K showed 0.61, 0.38, 0.68, 0.41, 0.38, 0.46 (mean 0.49; controls 4 of 18).
Variant Q27I/V29H/N35M/W56E showed 1.42, 1.14, 0.88, 0.77, 0.79, 0.68 (mean 0.95; controls 2 of 18).
Variant K24Q/V29F/W56G showed 0.99, 1.10, 0.67, 0.93, 1.10, 0.89 (mean 0.95; controls 0 of 18).
Variant S25Q/Q27D/V29D/Y31Q/W56D showed 0.61, 0.21, 0.23, 0.10, 0.21, 0.56 (mean 0.32; controls 1 of 18).
Variant S25Q/S38N/W56D/E61S showed -0.20, -0.12, -0.47, -0.45, -0.34, -0.07 (mean -0.27; controls 0 of 18).
Variant S25Q/W56D/S103K showed 0.78, 0.15, -0.19, 0.11, 0.16, 0.64 (mean 0.27; controls 0 of 18).
Variant S26A/V29W/W56H/S62Q showed 0.48, 0.84, 1.37, 0.63, 0.68, 0.81 (mean 0.80; controls 0 of 18).
Variant S25H/Y31I/W56D showed -0.24, -0.28, -0.21, -0.61, -0.32, -0.21 (mean -0.31; controls 0 of 18).
Variant S26L/V29T/W56H/S62Q showed -0.08, -0.27, -0.04, -0.10, -0.41, -0.12 (mean -0.17; controls 0 of 18).
Variant S25M/Y31M/S33Q/W56D/T59L showed -0.36, -0.64, -0.59, -0.75, -0.73, -0.46 (mean -0.59; controls 1 of 18).
Variant S25A/W56D/S103D showed 0.39, 0.27, 0.57, 0.39, 0.35, 0.67 (mean 0.44; controls 2 of 18).
Variant S25M/Q27I/V29Y/Y31G/W56E showed 0.48, 0.12, 0.20, 0.07, 0.27, 0.19 (mean 0.22; controls 0 of 18).
Variant K24H/S25V/Q27P/V29T/W56N showed 0.09, -0.26, -0.41, -0.57, -0.16, -0.33 (mean -0.27; controls 0 of 18).
Variant S25I/Y31M/S33D/W56D showed 0.20, 0.28, 0.03, 0.07, 0.01, 0.08 (mean 0.11; controls 0 of 18).
Variant V29Y/L30H/W56G showed 0.67, 0.20, 0.24, 0.61, 0.95, 1.05 (mean 0.62; controls 0 of 18).
Variant S25L/S26R/S28Q/V29T/S33T/W56H/S62E showed -0.03, -0.42, -0.04, -0.06, -0.22, -0.25 (mean -0.17; controls 0 of 18).
Variant K24H/Q27P/L30P/W56N/S62D/Q96D showed 0.28, 0.09, -0.13, 0.01, 0.15, 0.28 (mean 0.11; controls 1 of 18).
Variant S25L/S26E/V29S/L30N/W56N showed 0.28, 1.14, 0.15, 0.70, 0.19, 0.50 (mean 0.49; controls 1 of 18).

The last 4 entries again:

The variant V29Y/L30H/W56G gave 0.67, 0.20, 0.24, 0.61, 0.95, 1.05 (mean 0.62; controls 0 of 18).
The variant S25L/S26R/S28Q/V29T/S33T/W56H/S62E gave -0.03, -0.42, -0.04, -0.06, -0.22, -0.25 (mean -0.17; controls 0 of 18).
The variant K24H/Q27P/L30P/W56N/S62D/Q96D gave 0.28, 0.09, -0.13, 0.01, 0.15, 0.28 (mean 0.11; controls 1 of 18).
The variant S25L/S26E/V29S/L30N/W56N gave 0.28, 1.14, 0.15, 0.70, 0.19, 0.50 (mean 0.49; controls 1 of 18).